Results: ChEMBL document CHEMBL1126082, “Nucleosides and nucleotides. 107. 2-(cycloalkylalkynyl)adenosines: adenosine A2 receptor agonists with potent antihypertensive effects” (J Med Chem, 1992)

By UniProt entry, the sequences of proteins in these tests, tags left out. Where a name states a change or a piece, a line headed by the entry shows the natural chain unless it says otherwise.
UniProt P29276: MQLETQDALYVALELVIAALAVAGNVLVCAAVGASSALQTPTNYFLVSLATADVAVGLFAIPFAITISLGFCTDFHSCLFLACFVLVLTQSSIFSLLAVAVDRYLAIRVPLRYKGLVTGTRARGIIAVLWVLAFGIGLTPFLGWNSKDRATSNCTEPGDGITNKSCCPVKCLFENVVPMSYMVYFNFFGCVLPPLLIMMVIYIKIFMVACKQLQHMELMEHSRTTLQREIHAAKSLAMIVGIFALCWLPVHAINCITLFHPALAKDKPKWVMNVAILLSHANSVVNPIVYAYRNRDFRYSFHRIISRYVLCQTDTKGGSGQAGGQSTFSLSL
UniProt P30543: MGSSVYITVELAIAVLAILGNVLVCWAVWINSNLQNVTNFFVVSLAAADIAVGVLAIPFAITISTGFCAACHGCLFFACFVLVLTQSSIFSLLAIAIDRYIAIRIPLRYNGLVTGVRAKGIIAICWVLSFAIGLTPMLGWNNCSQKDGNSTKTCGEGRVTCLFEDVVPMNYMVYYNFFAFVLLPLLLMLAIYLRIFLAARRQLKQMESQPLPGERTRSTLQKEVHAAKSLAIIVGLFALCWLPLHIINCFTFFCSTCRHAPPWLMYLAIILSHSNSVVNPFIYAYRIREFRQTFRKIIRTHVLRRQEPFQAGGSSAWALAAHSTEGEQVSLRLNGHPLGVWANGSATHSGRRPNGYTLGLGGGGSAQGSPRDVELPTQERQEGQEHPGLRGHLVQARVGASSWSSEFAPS

Target: Adenosine A2 receptor (Rattus norvegicus, UniProt P29276+P30543)

CCCCC#Cc1nc(N)c2ncn([C@@H]3O[C@H](CO)[C@@H](O)[C@H]3O)c2n1
Ki: 2.8 nM
